Source: US10676700B2

Columns and labels:
[1] = Testing of stability of solution: concentrated to 45% and stirred at 23° C. for 5 days; settings: concentrated to 45% solids content, stirred at 23° C. over 5 days
Experimental: (§1) 2. Testing of Stability of Solution
50 ml of an aqueous solution according to 1.2 were concentrated to 45% solids content and then stirred at 23° C. over a period of time of 5 days. No precipitate formation could be observed.
For comparison purposes, MGDA-Na3 was synthesized by reacting acetaldehyde and hydrocyanic acid with iminodiacetonitrile, HN(CH2CN)2, in a molar ratio of 1:1:1 followed by subsequent saponification of the nitrile groups with a stoichiometric amount of NaOH as aqueous sodium hydroxide solution. The NH3 formed during the reaction was continuously removed by stripping. The volume of the reaction mixture was kept constant by repeated addition of water. A 40% by weight aqueous solution of […] was obtained. Said solution was concentrated to 45% by weight and then stirred at 23° C. over a period of time of 5 days. A significant turbidity could be observed.

[2] = Testing of stability of solution: petri dish at 50° C., 60% relative humidity for 48 hours; settings: 10 ml in a petri dish
Experimental: as §1
10 ml of an aqueous solution according to 1.2 were placed in a petri dish and left under the following conditions for 48 hours: 50° C., 60% relative humidity. After this period of time, aqueous solution according to 1.2 was still a clear solution.
10 ml of the above comparative solution were placed in a petri dish and left under the following conditions for 48 hours: 50° C., 60% relative humidity. After this period of time, significant precipitation could be observed.

## racemic MGDA-Na3
[1]
  precipitate formation / turbidity of the aqueous solution: significant turbidity
[2]
  appearance of the aqueous solution (clear / precipitation) after storage: significant precipitation

This is a selection: effects in other tests are not listed, and their absence says nothing.
